The entries are a selection whose mix differs from that of the whole data set. Calls of active or inactive are those of the source.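 The calls were made as follows: active = mean activation above a set limit taken from the earlier primary screen (cut at about 11% in these data); inactive = the rest.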

This test deals with Transthyretin (Homo sapiens) (UniProt P02766). In words: TTR transcription activators, retest, confirmation, cell-based, luminescence, SH-SY5Y, triplicate (AID 1117280).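 Also: 0% = DMSO-treated cells and 100% = recombinant Lucia luciferase without cells.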 To be noted: SHSY5Y TTR promoter Gaussia luciferase, at 16.7 µM, stronger effect = higher value, 100% = purified Lucia enzyme wells, no cells.
On to `CCOP(=O)(Nc1ccccc1)OCC`, for which the activation is inactive: 0.15%.

Take `Cc1ccc(OP(=O)(Nc2nccs2)Oc2ccc(C)cc2)cc1`: the activation is inactive: -0.45%.

For the origin of these results see PubChem BioAssay AID1117280 (The Scripps Research Institute Molecular Screening Center, 2014).
